Source: the supplement of paper PMC8498969

Assays:
HEK293 [1] = assay: IC50 for inhibition of ZIKV NS1 production
Protocol: (§1)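 HEK293 cells in 1536-well plates were pre-treated with compound for 1 h, infected with ZIKV (MOI 1) for 24 h, and NS1 antigen (intra- plus extracellular) was measured by TR-FRET. Confirmation used 11-point 1:3 dilutions, and IC50 and maximal inhibition were fitted in GraphPad Prism.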

HEK293 [2] = assay: cytotoxicity IC50 (ATP content, uninfected cells); higher = less cytotoxic; conditions: infection: none
HEK293 [3] = assay: maximal inhibition of ZIKV NS1 production (% inhibition); higher = stronger antiviral effect
Protocol: as §1

SMILES	IC50 (HEK293 [1]) [µM]	cytotoxicity IC50 (HEK293 [2]) [µM]	maximal inhibition (HEK293 [3])
CNCCCC12CCC(c3ccccc31)c1ccccc12	18	70	89
Cn1cc(-c2cnn3c(N)c(Br)c([C@@H]4CCCNC4)nc23)cn1	1.2	> 100	89
CN[C@H]1CCc2cc(OC)c(OC)c(OC)c2-c2ccc(OC)c(=O)cc21	–	> 100	57
CC(=O)[O][Hg][c]1ccccc1	4.6	3	109
N[C@@H](Cc1ccc(N(CCCl)CCCl)cc1)C(=O)O	10	80	101
